These results are taken from patent publication US20190167739A1, “COMPOSITION COMPRISING DUDDINGTONIA FLAGRANS” (INTERNATIONAL ANIMAL HEALTH PRODUCTS PTY LTD, priority 2016, published 2019).

Under “12.74 g meat consumed per kg BW per day”, `CC(=O)OCC1=CC(=O)C2(C(/C=C(C)/C=C/C=C(\C)CCC=C(C)C)OC(C)=O)OC2C1=O` (centres unmarked) [flagranone A] returned a Consumer exposure of 0.0279 pg/kg BW/day. For the same compound, where the note is “manufacturing workers, farmers and consumers”, the “Human exposure (below European TTC value)” value is listed as below 1.5 μg/kg BW/day.
